Values quoted from earlier work as cited in publication PMC6692079 (Journal of medicinal chemistry, 2018).

By UniProt entry, the sequences of proteins in these tests, tags left out. Where a name states a change or a piece, a line headed by the entry shows the natural chain unless it says otherwise.
UniProt P41145: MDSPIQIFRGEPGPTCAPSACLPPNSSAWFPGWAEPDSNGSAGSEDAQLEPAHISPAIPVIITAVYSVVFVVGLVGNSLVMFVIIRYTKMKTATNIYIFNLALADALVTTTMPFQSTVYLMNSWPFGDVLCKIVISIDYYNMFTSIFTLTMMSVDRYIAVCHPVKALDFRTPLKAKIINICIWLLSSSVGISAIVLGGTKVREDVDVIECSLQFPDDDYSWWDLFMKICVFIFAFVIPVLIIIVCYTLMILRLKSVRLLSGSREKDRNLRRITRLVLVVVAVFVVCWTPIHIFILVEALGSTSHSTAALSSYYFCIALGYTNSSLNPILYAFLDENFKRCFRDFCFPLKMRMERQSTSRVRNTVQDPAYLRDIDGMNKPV

Biological target: human κ opioid receptor (Homo sapiens, UniProt P41145)
Details: ratio of Ke values; previously reported; cited from earlier work

CC(C)[C@@H](CN1CCCCC1)NC(=O)[C@H]1Cc2ccc(O)cc2CN1 [Compound 1, (3R)‑7-Hydroxy‑N‑[(1S)‑2-methyl-1-(piperidin-1-ylmethyl)propyl]-1,2,3,4-tetrahydroisoquinoline-3-carboxamide]
δ/κ: > 441
